# PubChem BioAssay AID950 (NMMLSC, 2007)
# Protein sequences, listed by entry. Tags and fused reporters are not part of them.
# UniProt P10415, whole entry: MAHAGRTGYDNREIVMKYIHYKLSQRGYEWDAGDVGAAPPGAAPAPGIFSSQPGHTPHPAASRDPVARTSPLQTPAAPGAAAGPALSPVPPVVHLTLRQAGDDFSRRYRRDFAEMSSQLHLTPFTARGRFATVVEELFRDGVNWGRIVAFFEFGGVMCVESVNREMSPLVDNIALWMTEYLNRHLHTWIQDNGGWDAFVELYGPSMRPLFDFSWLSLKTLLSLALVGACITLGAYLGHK
# The entries are a selection whose mix differs from that of the whole data set. Some of these compounds have results that are not shown, active ones among them. Activity calls are given as the source filed them. Rule as the data show it: active = inhibition above about 40%; inconclusive = no clear call, values can overlap the other calls; inactive = below that.
# Target: Apoptosis regulator Bcl-2 (Homo sapiens) (UniProt P10415)
# Assay: Bcl-2 and Bim peptide interaction disruptors – biochemical, multiplexed, human Bcl-2 family, primary screen (AID 950);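 also: 0% = no compound wells with probe peptide and 100% = reference peptide inhibitor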
# Conditions: Bead-based flow cytometry, Bim peptide-Bcl-2 binding; at 10 µM; stronger effect = higher value
row,Compound,inhibition
1,CC(C)N1C(=O)CC2(CCN(CCOC(=O)C(O)(c3ccccc3)c3ccccc3)CC2)C1=O,inactive: 2%
2,O=C(NCC1(N2CCCCC2)CCCCC1)c1cc([N+](=O)[O-])ccc1Cl,inactive: -1%
3,CCN1CCCC(OC(=O)C2(O)c3ccccc3C=Cc3ccccc32)C1 (centres undefined),inactive: 1%
4,C=CCN1CCN(CCOC(=O)C(O)(c2ccccc2)c2ccccc2)CC1,inactive: 0%
5,CN(C)C1CCCC1OC(=O)C(O)(c1ccccc1)c1ccccc1 (centres undefined),inactive: -7%
6,Cc1ccccc1C(=O)NCC1(N2CCCCC2)CCCCC1,inactive: -1%
7,COc1cccc(C(=O)NCC2(N3CCCCC3)CCCCC2)c1,inactive: 0%
8,CN(C)c1cccc(C(=O)NCC2(N(C)C)CCCCC2)c1,inactive: -7%
9,O=C(OC1CN2CCC1CC2)C(CO)(c1ccccc1)c1ccccc1 (centres undefined),inactive: -12%
